What was measured:
µ-opioid receptor (µOR) [1] = target: µ-opioid receptor (µOR) (Rattus norvegicus, UniProt P33535); settings: 100 µM G-peptide added
µ-opioid receptor (µOR) [2] = settings: cited from earlier work

Chains of the proteins cited; added tags and fusions are not shown.
UniProt P33535, whole entry: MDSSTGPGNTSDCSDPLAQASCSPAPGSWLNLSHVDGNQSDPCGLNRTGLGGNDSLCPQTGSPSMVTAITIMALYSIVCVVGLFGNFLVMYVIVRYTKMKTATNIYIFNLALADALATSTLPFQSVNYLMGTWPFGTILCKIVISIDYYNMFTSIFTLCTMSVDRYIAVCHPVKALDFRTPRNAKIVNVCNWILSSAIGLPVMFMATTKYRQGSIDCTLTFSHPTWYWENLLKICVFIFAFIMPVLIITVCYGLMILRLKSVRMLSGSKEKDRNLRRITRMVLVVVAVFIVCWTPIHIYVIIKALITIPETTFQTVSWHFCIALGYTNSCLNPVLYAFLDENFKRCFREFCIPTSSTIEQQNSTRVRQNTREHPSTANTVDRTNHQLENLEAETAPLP

C[C@@H](Cc1ccsc1)NC(=O)NC[C@H](Cc1ccc(O)cc1)N(C)C
baseline of the binding curve (µ-opioid receptor (µOR) [1]): elevated
effect of adding G-peptide on ligand affinity / binding curve (µ-opioid receptor (µOR) [1]; competition against [^3H]DAMGO): increase in the affinity toward µOR
functional profile (µ-opioid receptor (µOR) [2]): Gi-biased agonist

From paper PMC10060287 (Pharmacological Reports, 2023)
